One substance from publication PMC3655264, “A Large-Scale Conformational Change Couples Membrane Recruitment to Cargo Binding in the AP2 Clathrin Adaptor Complex” (Cell, 2010) can be followed below.

This test has as its target fluorescein-labeled TGN38 YxxΦ peptide (ASDYQRL). Put plainly: fluorescence polarisation; equilibrium anisotropy titration, without heparin; 20 nM fluorescein peptide, increasing protein; 21°C; 10 mM Tris pH 8.7, 250 mM NaCl (AP2 core, short core) or 10 mM HEPES pH 7.4, 500 mM NaCl (C-μ2); single-site model with linear nonspecific term. A general note: Polarisation of emitted light reports the rotation of a fluorescent probe.

“isolated C-terminal domain of μ2 (C-μ2) (from UniProt P84092 1-435) (domain or fragment)” yielded a Kd of 1900 nM.

Broadly, the Kd is the concentration at which binding is half-saturated. The low end stands for tighter binding, the high end for weaker binding.
